The source of these data is publication PMC9571170, “Exploring Active Ingredients, Beneficial Effects, and Potential Mechanism of Allium tenuissimum L. Flower for Treating T2DM Mice Based on Network Pharmacology and Gut Microbiota” (Nutrients, 2022).

The target of this assay is α−Glucosidase (from yeast). As to the kind of experiment: In vitro α−glucosidase inhibitory activity assay (PNPG substrate). It counts as biochemical. How it is done: The α−glucosidase inhibitory activity assay method of A. tenuissimum flower flavonoids was slightly modified based on previous studies. A 96−well plate was used for preparing the mixture consisting of 0.1 M PBS (pH 6.8), 1.0 mg/mL sample solution, and 2 U/mL α−glucosidase, which were incubated at 37 °C for 10 min. 20 μL PNPG solution (2.5 Mm, dissolved in PBS) was added to each well to start the reaction and incubated at 37 °C. Twenty minutes later, 80 μL Na2CO3 solution (0.2 mol/L) was added to each well to terminate the reaction. The absorbance was measured at 405 nm by Tecan Infinite M200 PRO (Tecan Trading Co. Ltd., Shanghai, China). […] The inhibitory rate was calculated by the absorbance formula below:Inhibition% = [1 − (Aa − Ab) / Ac] × 100% a. 20 μL PNPG + 80 μL Na2CO3 + 20 μL PBS + 20 μL sample + 20 μL enzyme; b. 20 μL PNPG + 80 μL Na2CO3 + 40 μL PBS +20 μL sample; c. 20 μL PNPG + 80 μL Na2CO3 + 40 μL PBS + 20 μL enzyme.

Broadly, the IC50 is the point on the concentration scale where inhibition reaches its midpoint. The low end stands for greater potency in that assay, the high end for weaker potency in that assay. `COc1cc(O)c2c(=O)c(O)c(-c3ccc(O)cc3)oc2c1` [AF−37, rhamnocitrin] returned an IC50 of 191 ± 28 µM.
